Experimental data reported in publication PMC4077706, “Lifting the Mask: Identification of New Small Molecule Inhibitors of Uropathogenic Escherichia coli Group 2 Capsule Biogenesis” (PLoS ONE, 2014).

Sequences of proteins named here, by UniProt entry; tags and fusion partners are left off. A change or cut given only in a name is not applied to a line headed by its entry.
UniProt P25105: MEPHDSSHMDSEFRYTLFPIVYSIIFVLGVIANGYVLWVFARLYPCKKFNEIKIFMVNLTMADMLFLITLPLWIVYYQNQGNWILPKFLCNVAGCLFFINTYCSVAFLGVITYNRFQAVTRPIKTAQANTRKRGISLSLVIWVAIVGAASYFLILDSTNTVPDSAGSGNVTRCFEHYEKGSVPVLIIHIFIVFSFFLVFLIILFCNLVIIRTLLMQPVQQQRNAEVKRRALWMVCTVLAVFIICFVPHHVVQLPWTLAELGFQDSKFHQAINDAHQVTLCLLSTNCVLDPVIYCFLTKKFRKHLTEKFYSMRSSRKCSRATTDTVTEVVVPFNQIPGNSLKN

Target: T1, Platelet Activating Factor (PAF) (Homo sapiens, UniProt P25105)
T1 construct: Human platelets; host or cells: human platelets
Type: binding
Details: read-out: IC50 Concurrent

Substance: PAF [reference compound]
- IC50: 0.22 nM
